This is an account of results in ChEMBL document CHEMBL4011629, “New Disubstituted Quindoline Derivatives Inhibiting Burkitt's Lymphoma Cell Proliferation by Impeding c-MYC Transcription” (J Med Chem, 2017).

One may read the T/C as the result in the treated group divided by that in the control group, in per cent.

SMILES strings stand for the structures.

The test concerns Raji. Put plainly: Antitumor activity against human Raji cells xenografted in NOD/SCID nude mouse assessed as reduction in tumor volume at 1 mg/kg, ip administered once in 2 days for 2 weeks relative to control. Format: functional. A general note: In xenograft studies the graft and the host belong to different species.

For the molecule `COc1cccc2c1C(=O)c1c(O)c3c(c(O)c1C2=O)C[C@@](O)(C(=O)CO)C[C@@H]3O[C@H]1C[C@H](N)[C@H](O)[C@H](C)O1` [DOXORUBICIN], the T/C is reported as 31.9%.
